Measurements from patent US20220378747A1, “TOPICAL COMPOSITION FOR TREATING SKIN WOUNDS” (priority 2021, published 2022).

Experiment: 0.1M Zinc Gluconate and 0.1M Amino Acid Solutions: pH and precipitation on adjusting pH to 7.0
Settings: pH adjusted to 7.0 with NaOH

Observations: Not soluble
Structure (SMILES): N[C@@H](Cc1ccc(O)cc1)C(=O)O [Tyrosine]
